Measurements reported in patent publication US20040063695A1, “Cystic fibrosis transmembrane conductance regulator protein inhibitors and uses thereof” (priority 2002, published 2004).

The chains behind the UniProt entries cited, without tags or fusion partners.
UniProt P13569, whole entry: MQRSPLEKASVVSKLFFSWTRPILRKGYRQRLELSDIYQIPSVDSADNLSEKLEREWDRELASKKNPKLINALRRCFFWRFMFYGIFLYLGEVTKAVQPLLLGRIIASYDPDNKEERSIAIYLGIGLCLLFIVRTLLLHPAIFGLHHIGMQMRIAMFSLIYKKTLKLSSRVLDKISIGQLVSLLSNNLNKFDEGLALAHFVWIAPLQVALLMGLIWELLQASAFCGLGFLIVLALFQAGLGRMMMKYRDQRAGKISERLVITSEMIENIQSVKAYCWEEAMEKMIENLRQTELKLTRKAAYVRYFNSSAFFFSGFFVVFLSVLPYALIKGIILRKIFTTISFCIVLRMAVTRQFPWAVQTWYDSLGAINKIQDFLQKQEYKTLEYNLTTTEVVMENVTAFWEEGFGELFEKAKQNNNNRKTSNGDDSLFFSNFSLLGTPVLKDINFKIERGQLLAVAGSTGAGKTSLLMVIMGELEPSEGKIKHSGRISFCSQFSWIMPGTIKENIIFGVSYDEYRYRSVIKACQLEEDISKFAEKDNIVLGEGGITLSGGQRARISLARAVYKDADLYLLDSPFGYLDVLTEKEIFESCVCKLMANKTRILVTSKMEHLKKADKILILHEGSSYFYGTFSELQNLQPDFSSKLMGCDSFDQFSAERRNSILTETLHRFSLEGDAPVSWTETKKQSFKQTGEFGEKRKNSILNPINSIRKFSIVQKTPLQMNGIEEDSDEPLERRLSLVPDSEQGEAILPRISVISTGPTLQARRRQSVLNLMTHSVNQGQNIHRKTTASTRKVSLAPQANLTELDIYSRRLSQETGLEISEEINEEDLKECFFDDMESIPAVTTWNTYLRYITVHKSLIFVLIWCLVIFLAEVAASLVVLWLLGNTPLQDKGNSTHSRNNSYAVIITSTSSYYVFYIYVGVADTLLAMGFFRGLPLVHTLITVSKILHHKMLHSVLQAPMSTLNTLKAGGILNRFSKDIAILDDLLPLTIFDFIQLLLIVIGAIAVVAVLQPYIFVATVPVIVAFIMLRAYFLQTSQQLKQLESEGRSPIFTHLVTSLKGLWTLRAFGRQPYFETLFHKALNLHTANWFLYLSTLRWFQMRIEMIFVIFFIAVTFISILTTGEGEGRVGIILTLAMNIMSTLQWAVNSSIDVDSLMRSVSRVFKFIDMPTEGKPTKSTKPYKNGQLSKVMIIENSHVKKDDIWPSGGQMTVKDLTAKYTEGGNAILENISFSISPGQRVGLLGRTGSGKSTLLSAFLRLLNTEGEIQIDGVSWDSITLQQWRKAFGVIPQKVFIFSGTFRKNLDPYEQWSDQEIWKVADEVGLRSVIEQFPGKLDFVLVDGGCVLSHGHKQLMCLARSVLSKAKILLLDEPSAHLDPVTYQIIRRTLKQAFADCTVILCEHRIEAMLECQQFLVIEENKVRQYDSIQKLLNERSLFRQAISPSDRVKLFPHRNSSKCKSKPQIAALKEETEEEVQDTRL

Tests used:
CFTR [1] = biological target: T1, CFTR (Homo sapiens, UniProt P13569)
wildtype CFTR [2] = biological target: T2, wildtype CFTR (Homo sapiens, UniProt P13569); test: Short-circuit current in primary culture of human bronchial epithelial cells
wildtype CFTR [3] = biological target: T2, wildtype CFTR; test: YFP fluorescence assay of CFTR-mediated I− transport in FRT cells; format: cell-based; set-up: expressed in transfected cells; host or cells: Fischer rat thyroid (FRT) cells, stably transfected, co-expressing YFP-H148Q
Protocol: FIG. 1A is a schematic representation of a screening technique used for detection of CFTR inhibitors. CFTR was maximally stimulated by multiple agonists in stably transfected epithelial cells co-expressing human CFTR and a yellow fluorescent protein (YFP) having Cl^−/I^− sensitive fluorescence. After addition of a test compound, I^− influx was induced by adding an I^− containing solution.
Cells were plated in 96-well black-walled microplates (Corning Costar) at a density of 20,000 cells per well in Coon's modified F12 medium supplemented with 5% fetal calf serum, 2 mM L-glutamine, 100 U/ml penicillin, and 100 μg/ml streptomycin. Assays were done at 48 h after plating at which time cells were just confluent (˜40,000 cells per well).
Assays were done using a customized screening system (Beckman) consisting of a 3-meter robotic arm, CO2 incubator, plate washer, liquid handling workstation, bar code reader, delidding station, and two FluoStar fluorescence plate readers (BMG Labtechnologies, Offenburg, Germany), each equipped with two syringe pumps and HQ500/20X (500±10 nm) excitation and HQ535/30M (535±15 nm) emission filters (Chroma). The robotic system was integrated using SAMI version 3.3 software (Beckman) modified for two plate readers. Custom software was written in VBA (Visual Basic for Applications) to compute baseline-subtracted, normalized fluorescence slopes (giving halide influx rates) from stored data files.
The assay was set-up by loading the incubator (37° C., 90% humidity, 5% CO2) with 40-60 96-well plates containing the FRT cells, and loading a carousel with 96-well plates containing test compounds and disposable plastic pipette tips. To initiate the assay, each well of a 96-well plate was washed 3 times in PBS (300 μl/wash), leaving 50 μl PBS. Ten μl of a CFTR-activating cocktail (5 μM forskolin, 100 μM IBMX, 25 μM apigenin in PBS) was added, and after 5 min one test compound (0.5 μl of 1 mM DMSO solution) was added to each well to give 10 μM final concentration. After 10 min, 96-well plates were transferred to a plate reader for fluorescence assay. Each well was assayed individually for CFTR-mediated I^− transport by recording fluorescence continuously (200 ms per point) for 2 s (baseline) and then for 12 s after rapid (<0.5 s) addition of 160 μL of isosmolar PBS in which 137 mM Cl^− was replaced by I^−.
The primary screening technique used to identify the compounds of the invention was designed to identify inhibitors of CFTR Cl^− conductance by direct CFTR-inhibitor interaction. CFTR was pre-stimulated in CFTR-expressing FRT cells by an activating cocktail containing forskolin, IBMX and apigenin, as shown schematically in FIG. 1A. The activation of CFTR by multiple mechanisms (cAMP elevation, phosphodiesterase inhibition, and direct CFTR binding) allowed identification of inhibitors that blocked the CFTR Cl^− transporting pathway directly rather than more proximal step(s) in a signaling pathway. The FRT cells co-expressed a yellow fluorescent protein-based Cl^−/I^− sensor that provided a quantitative fluorescence read-out of inhibition potency (See, e.g., Jayaraman et al., 2000, J. Biol. Chem. 275:6047-6050; Galietta et al., 2001, Am. J. Physiol. 281:C1734-C1742.). After CFTR pre-stimulation and compound addition, cells were subjected to an inwardly-directed I^− gradient to drive I^− influx and produce decreasing fluorescence. Each assay consisted of recording baseline fluorescence for 2 seconds, followed by 12 seconds of continuous recording of fluorescence after rapid addition of the I^− containing solution. Compounds were tested separately at 10 μM concentration in a 96-well format utilizing a fully-automated high-throughput screening apparatus (see Example 2 below).

CFTR [4] = biological target: T1, CFTR; remark: listed apart in the source

In the case of “3-[(3-trifluoromethyl)phenyl]-5-[(4-carboxyphenyl)methylene]-2-thioxo-4-thiazolidinone [CFTRinh-172]”, the Hill coefficient (CFTR [1]; dose-inhibition of short-circuit current) is reported as roughly 1, the Kd (CFTR [1]; read-out: Kd, inhibition of short-circuit current, CFTR stimulated by 100 μM CPT-cAMP, apical addition) is reported as roughly 300 nM and the “effect on short-circuit current, basolateral side” value (wildtype CFTR [2]; added from the basolateral side) is reported as “also inhibited short-circuit current”. For the same substance, the “effect on short-circuit current, apical side” value (wildtype CFTR [2]; amiloride, maximal activation by CPT-cAMP, apical application) was “inhibited short-circuit current strongly”, the “inhibition of CFTR activation by different agonists” value (wildtype CFTR [3]; 5 μM inhibitor, agonists 50 μM (genistein, CPT-cAMP, CPX, 8-MPO, UCCF-029, UCCF-853)) was “effectively inhibited CFTR activation by multiple types of agonists” and the t1/2 of inhibition (wildtype CFTR [3]; after addition of 2 μM) was 4 min. The “time to complete inhibition” value (wildtype CFTR [3]; after addition of 2 μM) was roughly 10 min, the “concentrations at which significant CFTR inhibition was seen” value (wildtype CFTR [3]; dose-inhibition, FIG. 2A) was 0.3 to 0.6 µM and the “relative potency (CFTR inhibitory activity)” value (wildtype CFTR [3]; relative to CFTRinh-172 = 1.0) was 1.0. The “t1/2 of inhibition reversal after washout” value (wildtype CFTR [3]; washout of 1 μM) was roughly 5 min, the “inhibition of membrane current” value (CFTR [4]; 0.2 μM, forskolin stimulation) was roughly 50% and the “effect on whole-cell membrane current” value (CFTR [4]; 2 μM, 5 μM forskolin stimulation) was “rapid reduction in current at all membrane potentials”.
